The results in this text go back to patent US20230151014A1 (Repare Therapeutics Inc., priority 2020, published 2023).

Amino acid sequences for entries named in this document (tags omitted).
UniProt Q99640, whole entry: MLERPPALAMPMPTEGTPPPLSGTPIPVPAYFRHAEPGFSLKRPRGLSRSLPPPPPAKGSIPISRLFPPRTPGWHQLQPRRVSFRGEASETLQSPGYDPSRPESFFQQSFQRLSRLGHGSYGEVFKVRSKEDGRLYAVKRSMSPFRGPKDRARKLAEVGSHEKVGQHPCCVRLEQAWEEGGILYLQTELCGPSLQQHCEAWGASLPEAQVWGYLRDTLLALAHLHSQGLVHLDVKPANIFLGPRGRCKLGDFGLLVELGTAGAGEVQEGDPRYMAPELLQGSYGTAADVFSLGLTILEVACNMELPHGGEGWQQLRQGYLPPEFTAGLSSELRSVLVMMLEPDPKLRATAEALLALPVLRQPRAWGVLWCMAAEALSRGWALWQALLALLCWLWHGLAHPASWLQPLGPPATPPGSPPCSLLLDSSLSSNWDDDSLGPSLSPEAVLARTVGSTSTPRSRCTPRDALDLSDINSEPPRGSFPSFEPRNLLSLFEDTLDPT

In this experiment the target is recombinant human Myt1 (Homo sapiens, UniProt Q99640). Kind of experiment: Myt1 enzymatic assay (ADP-Glo kinase assay, IC50 and % max inhibition). The format is biochemical. The settings on record: read-out: Myt1 IC50, recombinant human Myt1 18 nM, ATP 10 μM. (In general: ADP-Glo first removes unused ATP, then detects ADP through luciferase.)
One may read the IC50 as the midpoint of a concentration-inhibition curve. On to `CNC(=O)C1CCN(c2cnc3c(n2)c(C(N)=O)c(N)n3-c2c(C)ccc(O)c2C)CC1` [47], for which the concentration for half-maximal inhibition (IC50) was under 0.01 µM. Turning to `CNC(=O)C1CCN(c2cnc3c(n2)c(C(N)=O)c(N)n3-c2c(C)ccc(O)c2C)CC1` [48], the 50% inhibitory concentration (IC50) is over 5 µM. As for `[2H]C([2H])([2H])c1nc2c(C(N)=O)c(N)n(-c3c(C)ccc(O)c3C)c2nc1Br` [272], the figure is under 0.01 µM. As for `[2H]C([2H])([2H])c1nc2c(C(N)=O)c(N)n(-c3c(C)ccc(O)c3C)c2nc1Br` [273], the figure is 0.585 µM; as for `Cc1ccc(O)c(C)c1-n1c(N)c(C(N)=O)c2nc(N3CC4CCC(C3)O4)cnc21` [Compound 92], under 0.01 µM; as for `[2H]C([2H])([2H])c1nc2c(nc1C1CC1)c(C(N)=O)c(N)n2-c1c(C)ccc(O)c1C` [Compound 112], 1.38 µM. In the case of `Cc1ccc(O)c(C)c1-n1c(N)c(C(N)=O)c2nc(C(C)(C)F)cnc21` [Compound 178, 6-amino-2-(1-fluoro-1-methyl-ethyl)-5-(3-hydroxy-2,6-dimethyl-phenyl)pyrrolo[2,3-b]pyrazine-7-carboxamide], the IC50 was 0.089 µM.
